Here are results for one substance from patent US20230416457A1, “DUAL MODALITY UPS […] TUMOR ACIDOSIS IMAGING” (The Board of Regents of The University of Texas System, priority 2018, published 2023).

This data set concerns orthotopic HN5 head and neck tumors. The conditions noted are these: mouse, in vivo.

In the case of ^18F-fluorodeoxyglucose [FDG], the “HN5 tumor uptake, FDG-PET” value stood at 5.4±0.7 % ID/g; the “non-specific uptake in brain, FDG-PET” value is 7.9±1.6 % ID/g; the “non-specific uptake in brown fats, FDG-PET” value is 8.1±1.3 % ID/g; the “non-specific uptake in tensed (striated) muscles, FDG-PET” value is 6.3±0.3 % ID/g.
